1 compound from ChEMBL document CHEMBL2380288, “Design, synthesis, and molecular modeling of novel pyrido[2,3-d]pyrimidine analogues as antifolates; application of Buchwald-Hartwig aminations of heterocycles” (J Med Chem, 2013) can be followed below.

Assay [1] is described as follows: Selectivity ratio of IC50 for rat liver DHFR to IC50 for Pneumocystis carinii DHFR.
The nature of assay [2]: Selectivity ratio of IC50 for rat liver DHFR to IC50 for Mycobacterium avium DHFR.
Assay [3] can be described thus: Selectivity ratio of IC50 for human recombinant DHFR to IC50 for Pneumocystis jirovecii recombinant DHFR.

With `CN(c1cc(F)c(F)c(F)c1)c1cnc2nc(N)nc(N)c2c1`, the Ratio IC50 in assay [1] is 1.9; in assay [2], 15; in assay [3], 35.
